# Antibody variant affinities, Ab-14 light chain, assay B

The measurements come from Li et al. 2023 (doi:10.1038/s41467-023-39022-2) through the FLAb antibody collection.

Binding partner: SARS-CoV-2 spike HR2 peptide, sequence PDVDLGDISGINAS.

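This is the validation round: designs drawn from the data on random variants, tested in the same kind of assay. Several design methods are mixed in this list. The scFvs were displayed on barcoded MATa yeast, the peptide on MATalpha yeast. Mating (16 h, 30 °C) was followed by selection of diploids and sequencing of their barcodes. Each replicate has its own calibration line, from reference interactions of the BCL2 family. There are six technical replicates.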

The variants keep the heavy chain, the linker and the frameworks of Ab-14 (scFv order VH, a 15-residue (Gly4Ser)3 linker, VL).
VH: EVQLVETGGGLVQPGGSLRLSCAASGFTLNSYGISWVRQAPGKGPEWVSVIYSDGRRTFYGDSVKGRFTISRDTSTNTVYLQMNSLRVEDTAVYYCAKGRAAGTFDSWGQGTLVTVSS
VL: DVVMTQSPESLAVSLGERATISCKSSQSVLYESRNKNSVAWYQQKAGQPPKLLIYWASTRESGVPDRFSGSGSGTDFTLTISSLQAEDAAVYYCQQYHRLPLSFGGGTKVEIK

Variants are written as CDR1, CDR2 and CDR3 of the light chain (limits as in the source). Parent: KSSQSVLYESRNKNSVA, WASTRES, QQYHRLPLS. Values are log10 of the apparent Kd in nM; lower means stronger binding. Replicates are averaged; those with no signal do not enter the mean. "ND" means that the variant was in the library but no mating with the target was seen in that replicate; the authors take this as a sign of poor binding, and no number exists. The authors' rule: three or more of the six replicates give a measured affinity, fewer mean a poor binder.

CDR-L1,CDR-L2,CDR-L3,log10 Kd (nM) by replicate,"log10 Kd (nM), mean"
KLQQSELYESRNKNSVA,SASTRMS,QQYHRLPLS,0.23 -0.10 -0.07 -0.19 -0.02 0.17,0.00
KFSMMSNSMQVSKSAVA,EMSTRPE,QQYNRLPLA,0.77 0.65 0.33 0.64 0.58 0.42,0.56
KLVNFMNRGTHHTSNIA,DAQNRID,QQYARLPLA,1.18 1.15 0.86 1.36 1.30 1.05,1.15
TISQMSTLFSQSINNVA,EVSTRLD,QQYDRLPLA,0.48 0.91 1.21 0.42 0.62 0.62,0.71
NVDISANVGYNHKAAVA,GHDERVG,QQYYRLPLA,0.82 -0.16 1.02 0.58 0.31 0.78,0.56
KSSQSVLYESRNKNSVA,WASTRES,QQYHRLPWS,ND ND ND ND ND ND,ND
KFSYSVLYEDRNQNSVA,DASQREQ,QQYHRLPLS,0.31 0.40 0.45 0.13 0.57 0.47,0.39
KFSQSYLYESRNKNSVA,HASTRES,QQYHRLPLS,0.41 0.34 0.17 0.20 0.38 0.37,0.31
KLSQSMLYESRNKNSVA,NASQREE,QQYHRLPLS,0.25 -0.19 -0.11 -0.05 -0.24 0.02,-0.05
MMSMGYLGGMRARNNVA,QEETREK,QQYHRLPLI,ND ND ND ND ND ND,ND
KSRQSVLYESRNKNSVA,WAMTRES,QQYHRLPLS,ND ND ND ND ND ND,ND
KISQSVLYESRNKNSVA,WASTRES,SQYKRLPFS,ND 4.09 ND ND ND ND,4.09
TISQVLNTLAKTGNNVA,DLAERED,QQYFRLPLS,2.79 1.62 1.33 1.59 1.27 1.48,1.68
KVYILDDGGDRNKNSVA,HASLRES,QQYHRLPLS,0.90 0.98 0.70 0.19 0.88 0.47,0.69
KLEFSALEESRNPNSVA,SASTRES,QDYHRLPLS,0.37 -0.12 -0.12 -0.15 -0.09 0.13,0.00
KYQQSEPYESRNKNSVA,NASTRET,QQYHRLPLS,-0.22 -0.27 -0.16 -0.65 -0.29 -0.03,-0.27
KSCQSVLLESYNKTSVA,WASTRES,QQYHRLPLS,1.57 1.64 ND 3.53 2.34 2.14,2.24

Second part, the sequence after the result:

log10 Kd (nM) by replicate,"log10 Kd (nM), mean",CDR-L1,CDR-L2,CDR-L3
-0.42 -0.36 -0.13 -0.87 -0.08 -0.55,-0.40,ISSQSVLIESRNKNSVA,DASTRES,QQYHRLPLS
0.86 0.40 0.28 0.27 0.29 0.59,0.45,HMSEQEHGDNVGVGNMA,NAHETVA,QQYHHLPLS
1.12 1.08 0.54 0.76 0.75 0.81,0.84,KLRQSTKYESRNQNSVA,YASTRES,QQYHRLPLS
0.06 -0.13 0.47 0.56 0.63 0.48,0.35,HINTALKTVDDHYSNVA,EQRLTSE,QQYFRLPLS
1.77 0.46 0.18 1.38 0.83 1.29,0.98,KLMYLVLYESRNKNSVA,GASTRLQ,QQYHRLPLS
0.74 0.60 0.55 0.99 0.70 0.63,0.70,NMGGTKEMQSNEINNIA,EMNERFA,QQYFQLPLS
0.54 0.43 0.51 0.30 0.59 0.75,0.52,HMSALTLMGSRTRNSVA,QMTTREN,QQYDRLPLA
0.32 0.19 -0.02 -0.04 -0.08 0.26,0.11,KVLQSVLLESRNSNSVA,NASTREL,QQYHRLPLS
0.10 0.02 -0.13 -0.20 -0.29 -0.11,-0.10,AFSQSVLYESRNQNSVA,EASTRCD,QQYHRLPLS
0.88 0.53 0.57 0.27 0.38 0.94,0.59,TISQMTSLFSQTINNVA,EVSTREA,QQYDRLPLM
0.54 0.35 -0.03 0.09 -0.05 0.42,0.22,TLYGLSMSMSKNKNNVA,EMSTREK,QQYDRLPLQ
1.85 3.50 2.60 1.87 2.29 2.15,2.38,DVHALMNHSSDLMQSIA,DEECRDA,QQYERLPLS
-0.27 -0.29 -0.35 -0.41 -0.55 -0.29,-0.36,KLDQSVVYESRNKNSVA,NASTRES,QQYHRLPLS
1.66 1.92 1.52 2.07 2.05 2.10,1.89,MISDLMYYGLRNVNSVA,DLSTRGN,QQYDRLPLS
0.52 0.57 0.37 0.60 0.48 0.70,0.54,KLSQSVPYESRNKNSVA,NASTRMQ,QQYHRLPLS
0.86 0.27 0.53 0.45 0.80 0.77,0.61,KLMGSMLYEQRMKNSVA,QASQRMS,QQYHRLPLS
0.59 1.09 1.15 0.92 0.52 0.49,0.79,TLMQVGGYEMNAHNSIA,DLRTREE,QQYHRLPLS

Extract of 3 entries:

| CDR-L1 | CDR-L2 | CDR-L3 | log10 Kd (nM) by replicate | log10 Kd (nM), mean |
|---|---|---|---|---|
| KLMYLVLYESRNKNSVA | GASTRLQ | QQYHRLPLS | 1.77 0.46 0.18 1.38 0.83 1.29 | 0.98 |
| HMSALTLMGSRTRNSVA | QMTTREN | QQYDRLPLA | 0.54 0.43 0.51 0.30 0.59 0.75 | 0.52 |
| KLSQSVPYESRNKNSVA | NASTRMQ | QQYHRLPLS | 0.52 0.57 0.37 0.60 0.48 0.70 | 0.54 |

The range of this assay differs from that of the first round, and the authors advise against merging the two. Of ten entries with the parent sequence, four were seen in most replicates (averages 0.34 to 2.37), three in one and three in none, so single entries are noisy. Nonspecific signal, from three strains lacking the peptide, appeared in 4% of pairings of all light chain designs, centred on 2.64 (5% of these signals below 1.59); values are not corrected for it.